# Values of other authors as cited in US9993488B2, “Dry powder formulations for inhalation” (OtiTopic Inc., priority 2014, dated 2018).
# Like-named read-outs stand apart in the source and are kept apart here.
# Conditions: cited from earlier work
substance,measurement,setting,value
insulin,"peak plasma levels, inhalation compared to injection",inhaled versus injected,nearly double
same,time to appearance in the circulation,inhaled,less than 30 minutes
same,time to appearance in the circulation,injected,about 90 minutes
